The term IC50 denotes the concentration at which inhibition is half-maximal.

Chains of the proteins cited; added tags and fusions are not shown. Residues count along the entry.
UniProt O95271, 1091-1325: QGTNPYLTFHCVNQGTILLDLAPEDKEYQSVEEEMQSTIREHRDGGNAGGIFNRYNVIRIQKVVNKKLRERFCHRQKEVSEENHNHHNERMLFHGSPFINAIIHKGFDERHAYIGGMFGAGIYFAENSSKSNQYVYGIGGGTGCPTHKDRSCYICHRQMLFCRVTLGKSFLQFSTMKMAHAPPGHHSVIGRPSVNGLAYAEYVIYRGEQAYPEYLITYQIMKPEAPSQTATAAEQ

This assay has as its target 6×HIS-tankyrase 1 (1091-1325) (Homo sapiens (Human), UniProt O95271). Format: biochemical. Conditions: […] enzyme, 400 nM NAD, 60 minutes at room temperature; read-out: TNKS1 IP IC50.

Turning to `CC1(C)OC(=O)N([C@H]2CC[C@H](n3c(=O)[nH]c4cc(Cl)ccc43)CC2)[C@H]1c1ccccc1` [Example 29, (S)-3-((1r,4S)-4-(5-chloro-2-oxo-2,3-dihydro-1H-benzo[d]imidazol-1-yl)cyclohexyl)-5,5-dimethyl-4-phenyloxazolidin-2-one], the IC50 is 5.33 nM.

For the origin of these results see patent US9340549B2, “Oxazolidinone compounds and derivatives thereof” (priority 2012, dated 2016).
